Experimental data reported in BindingDB's records for doi:10.1021/jm00089a022 (Warner-Lambert, 1992).

Target: T1, 3-hydroxy-3-methylglutaryl-coenzyme A reductase (Homo sapiens, UniProt P04035)
T1 sequence (P04035 whole entry): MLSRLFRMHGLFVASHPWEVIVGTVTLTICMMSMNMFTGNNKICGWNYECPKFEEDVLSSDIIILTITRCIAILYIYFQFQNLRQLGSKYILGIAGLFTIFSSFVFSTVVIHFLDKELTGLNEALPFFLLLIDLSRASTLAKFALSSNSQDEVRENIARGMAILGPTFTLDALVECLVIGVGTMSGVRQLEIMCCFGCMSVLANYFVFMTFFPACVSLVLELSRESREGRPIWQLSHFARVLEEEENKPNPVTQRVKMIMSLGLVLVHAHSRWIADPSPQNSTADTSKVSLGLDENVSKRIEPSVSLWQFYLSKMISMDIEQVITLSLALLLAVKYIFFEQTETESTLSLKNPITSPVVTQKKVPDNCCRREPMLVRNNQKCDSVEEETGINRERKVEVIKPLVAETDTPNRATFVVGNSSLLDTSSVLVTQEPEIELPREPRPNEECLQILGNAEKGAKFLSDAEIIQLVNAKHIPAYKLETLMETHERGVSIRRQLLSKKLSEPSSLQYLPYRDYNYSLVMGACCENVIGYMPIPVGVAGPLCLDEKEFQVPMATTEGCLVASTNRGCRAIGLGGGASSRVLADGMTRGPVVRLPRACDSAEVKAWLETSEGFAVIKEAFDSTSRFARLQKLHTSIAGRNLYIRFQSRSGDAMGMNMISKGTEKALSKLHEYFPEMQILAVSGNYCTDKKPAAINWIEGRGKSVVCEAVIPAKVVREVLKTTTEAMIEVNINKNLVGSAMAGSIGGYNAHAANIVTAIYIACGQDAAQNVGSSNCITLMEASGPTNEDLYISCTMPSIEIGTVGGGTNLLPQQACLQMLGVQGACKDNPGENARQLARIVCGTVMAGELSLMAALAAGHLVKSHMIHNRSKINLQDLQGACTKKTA
Experiment: ChEBML_80349
Text: Tested in vitro for the inhibition of HMG-CoA reductase from partially purified microsomal preparations.

IC50: 30 nM
Structure (SMILES): CC[C@H](C)C(=O)O[C@H]1C[C@H](O)C=C2C=C[C@H](C)[C@H](CC[C@@H](O)C[C@@H](O)CC(=O)O)[C@H]21 [(3R,5R)-7-[(1S,2S,6S,8S,8aR)-6-hydroxy-2-methyl-8-{[(2S)-2-methylbutanoyl]oxy}-1,2,6,7,8,8a-hexahydronaphthalen-1-yl]-3,5-dihydroxyheptanoic acid]
